Laboratory results published in the Kinase Knowledgebase extract (Sharma et al. 2016).
pIC50: −log10 of the molar value.

Amino acid sequences for entries named in this document (tags omitted). A change or cut given only in a name is not applied to a line headed by its entry.
UniProt P42336, whole entry, looked up: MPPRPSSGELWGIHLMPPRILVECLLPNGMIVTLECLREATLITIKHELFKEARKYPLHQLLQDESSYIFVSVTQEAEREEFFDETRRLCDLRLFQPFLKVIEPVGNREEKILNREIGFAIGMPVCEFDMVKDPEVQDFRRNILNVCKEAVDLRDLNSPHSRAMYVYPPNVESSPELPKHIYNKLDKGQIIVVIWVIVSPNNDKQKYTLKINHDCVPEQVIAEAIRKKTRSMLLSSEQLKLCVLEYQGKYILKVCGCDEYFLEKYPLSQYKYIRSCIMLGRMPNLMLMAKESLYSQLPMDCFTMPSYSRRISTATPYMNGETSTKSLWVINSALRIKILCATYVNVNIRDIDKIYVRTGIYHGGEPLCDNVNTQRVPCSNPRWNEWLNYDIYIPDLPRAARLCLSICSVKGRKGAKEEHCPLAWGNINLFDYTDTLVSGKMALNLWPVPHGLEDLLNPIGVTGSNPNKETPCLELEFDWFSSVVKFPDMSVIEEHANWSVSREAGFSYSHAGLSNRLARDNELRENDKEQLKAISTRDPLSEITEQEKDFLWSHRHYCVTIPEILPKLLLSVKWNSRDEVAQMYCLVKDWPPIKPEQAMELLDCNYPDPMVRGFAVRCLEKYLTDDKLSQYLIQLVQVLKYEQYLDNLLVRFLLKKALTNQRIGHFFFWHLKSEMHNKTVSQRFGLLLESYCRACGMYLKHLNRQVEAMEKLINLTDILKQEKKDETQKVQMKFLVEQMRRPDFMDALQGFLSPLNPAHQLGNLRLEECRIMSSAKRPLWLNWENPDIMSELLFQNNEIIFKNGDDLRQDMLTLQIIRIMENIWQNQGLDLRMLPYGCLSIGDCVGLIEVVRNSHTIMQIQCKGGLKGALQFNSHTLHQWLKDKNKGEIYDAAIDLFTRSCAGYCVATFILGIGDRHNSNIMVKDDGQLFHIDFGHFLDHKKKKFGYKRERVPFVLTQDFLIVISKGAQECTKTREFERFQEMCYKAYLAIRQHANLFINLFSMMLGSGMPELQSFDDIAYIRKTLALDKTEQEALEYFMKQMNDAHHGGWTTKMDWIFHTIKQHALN
UniProt O00329: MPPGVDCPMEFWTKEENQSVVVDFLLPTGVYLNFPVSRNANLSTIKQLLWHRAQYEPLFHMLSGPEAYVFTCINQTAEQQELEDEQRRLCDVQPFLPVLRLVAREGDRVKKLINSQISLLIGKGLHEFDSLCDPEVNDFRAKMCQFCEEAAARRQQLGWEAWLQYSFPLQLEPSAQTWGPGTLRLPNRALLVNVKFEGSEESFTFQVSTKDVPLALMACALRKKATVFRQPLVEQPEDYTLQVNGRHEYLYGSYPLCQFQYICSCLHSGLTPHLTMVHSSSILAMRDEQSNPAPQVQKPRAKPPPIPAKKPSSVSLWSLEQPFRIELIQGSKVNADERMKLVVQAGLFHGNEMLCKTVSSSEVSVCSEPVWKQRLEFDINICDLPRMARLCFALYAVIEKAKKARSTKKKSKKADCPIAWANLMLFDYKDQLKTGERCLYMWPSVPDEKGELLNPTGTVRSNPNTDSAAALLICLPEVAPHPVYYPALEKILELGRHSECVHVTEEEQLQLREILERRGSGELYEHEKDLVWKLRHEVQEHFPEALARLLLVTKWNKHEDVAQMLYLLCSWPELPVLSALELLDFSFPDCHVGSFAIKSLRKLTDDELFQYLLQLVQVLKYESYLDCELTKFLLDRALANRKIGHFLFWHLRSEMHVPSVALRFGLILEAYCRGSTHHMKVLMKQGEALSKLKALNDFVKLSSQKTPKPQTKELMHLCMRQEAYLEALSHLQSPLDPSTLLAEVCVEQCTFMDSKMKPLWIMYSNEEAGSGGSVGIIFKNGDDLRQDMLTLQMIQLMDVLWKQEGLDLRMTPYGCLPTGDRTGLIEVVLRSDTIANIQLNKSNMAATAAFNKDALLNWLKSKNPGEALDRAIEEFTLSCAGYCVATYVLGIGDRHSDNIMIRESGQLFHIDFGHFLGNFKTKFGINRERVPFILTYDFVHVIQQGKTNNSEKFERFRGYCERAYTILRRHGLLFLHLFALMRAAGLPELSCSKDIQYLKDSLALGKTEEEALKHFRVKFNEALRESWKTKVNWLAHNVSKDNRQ

Assays:
PIK3CA (human) [1] = biological target: PIK3CA (human) (UniProt P42336); experiment: Enzyme Assay
PIK3CD (Human) = PIK3CD (Human) (UniProt O00329); experiment: Enzyme Assay
PIK3CA (human) [2] = biological target: PIK3CA (human) (UniProt P42336); experiment: Cell-Based Assay; conditions: t47d

pIC50 (PIK3CA (human) [1]): > 7.00
pIC50 (PIK3CD (Human)): > 7.00
pIC50 (PIK3CA (human) [2]): 6.00 to 7.00
Structure (SMILES): Nc1nc2cc(-c3ccc4ncc(C(=O)N[C@H]5CC[C@H](O)CC5)n4c3)ccc2o1
